Measured values reported in article PMC10095357, “Inhibition of Soluble Epoxide Hydrolase Activity by Components of Glycyrrhiza uralensis” (International Journal of Molecular Sciences, 2023).

Amino acid sequences for entries named in this document (tags omitted).
UniProt P34913, whole entry: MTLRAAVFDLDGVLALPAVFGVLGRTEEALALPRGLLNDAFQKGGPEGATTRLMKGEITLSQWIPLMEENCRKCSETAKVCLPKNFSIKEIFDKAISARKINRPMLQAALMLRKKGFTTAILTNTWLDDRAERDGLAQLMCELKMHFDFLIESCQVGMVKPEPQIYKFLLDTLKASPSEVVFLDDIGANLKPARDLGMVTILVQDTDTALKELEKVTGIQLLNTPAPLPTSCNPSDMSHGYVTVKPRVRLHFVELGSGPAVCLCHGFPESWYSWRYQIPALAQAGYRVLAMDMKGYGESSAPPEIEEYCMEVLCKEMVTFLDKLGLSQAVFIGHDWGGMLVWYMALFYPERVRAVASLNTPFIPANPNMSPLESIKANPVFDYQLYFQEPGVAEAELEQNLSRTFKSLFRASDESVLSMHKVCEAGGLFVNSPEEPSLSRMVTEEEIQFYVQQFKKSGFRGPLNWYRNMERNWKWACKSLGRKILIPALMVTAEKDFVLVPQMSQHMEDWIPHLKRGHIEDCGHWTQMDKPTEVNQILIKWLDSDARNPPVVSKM

Key:
Human recombinant sEH [1] = target: T1, Human recombinant sEH (Homo sapiens, UniProt P34913); assay: sEH assay (fluorescent substrate hydrolysis, inhibitory activity and IC50); format: biochemical; settings: sEH inhibition
T1 construct: purchased Cayman Chemical (Ann Arbor, MI, USA) 10011669

Human recombinant sEH [2] = target: T1, Human recombinant sEH; assay: sEH enzyme kinetics (Lineweaver–Burk and Dixon plots); format: biochemical; settings: Dixon plot analysis

| Substance | IC50 (Human recombinant sEH [1]) [µM] | Ki (Human recombinant sEH [2]) [µM] |
| --- | --- | --- |
| isoliquiritin apioside [Compound 6] | 22.2 ± 0.1 | 32.7 |
| liquiritin apioside [Compound 3] | 72.3 ± 0.5 | 89.1 |
